The source of these data is ChEMBL document CHEMBL4118094, “Structure-Guided Design and Initial Studies of a Bifunctional MEK/PI3K Inhibitor (ST-168)” (ACS Med Chem Lett, 2017).

Protein sequences, listed by entry. Tags and fused reporters are not part of them.
UniProt P42336, whole entry: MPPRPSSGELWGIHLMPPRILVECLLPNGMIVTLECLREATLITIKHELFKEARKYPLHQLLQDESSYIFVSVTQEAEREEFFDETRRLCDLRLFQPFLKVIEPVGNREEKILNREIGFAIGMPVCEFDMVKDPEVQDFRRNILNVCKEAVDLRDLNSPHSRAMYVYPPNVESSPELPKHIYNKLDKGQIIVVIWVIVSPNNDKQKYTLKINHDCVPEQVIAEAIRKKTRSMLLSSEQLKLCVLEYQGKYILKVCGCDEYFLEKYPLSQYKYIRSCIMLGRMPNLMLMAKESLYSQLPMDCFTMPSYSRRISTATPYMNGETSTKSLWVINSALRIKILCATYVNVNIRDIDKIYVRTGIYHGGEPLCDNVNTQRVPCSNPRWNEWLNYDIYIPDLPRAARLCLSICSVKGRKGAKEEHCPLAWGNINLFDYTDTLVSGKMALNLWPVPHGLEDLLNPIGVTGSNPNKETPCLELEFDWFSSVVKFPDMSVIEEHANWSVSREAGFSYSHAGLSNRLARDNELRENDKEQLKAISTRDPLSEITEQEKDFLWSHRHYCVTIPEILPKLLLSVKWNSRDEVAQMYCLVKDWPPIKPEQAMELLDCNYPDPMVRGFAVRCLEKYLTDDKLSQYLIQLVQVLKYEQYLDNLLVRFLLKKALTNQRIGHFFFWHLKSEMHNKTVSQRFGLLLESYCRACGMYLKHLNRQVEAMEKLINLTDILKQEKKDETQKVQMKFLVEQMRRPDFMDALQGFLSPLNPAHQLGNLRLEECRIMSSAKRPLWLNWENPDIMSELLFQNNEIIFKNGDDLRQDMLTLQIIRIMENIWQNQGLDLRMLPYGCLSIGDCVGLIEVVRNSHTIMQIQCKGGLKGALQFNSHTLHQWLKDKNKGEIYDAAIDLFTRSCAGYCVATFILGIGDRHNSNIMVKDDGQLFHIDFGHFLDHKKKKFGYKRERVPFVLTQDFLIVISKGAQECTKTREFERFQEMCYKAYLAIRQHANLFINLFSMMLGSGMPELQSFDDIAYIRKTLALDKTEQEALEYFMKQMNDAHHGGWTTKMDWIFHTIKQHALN

Bounds are passed on as bounds.

Usually IC50 stands for the midpoint of a concentration-inhibition curve.

Experiment [1] concerns the target Phosphatidylinositol 4,5-bisphosphate 3-kinase catalytic subunit alpha isoform (Homo sapiens, UniProt P42336).
Experiment [2] concerns the target T1, Phosphatidylinositol 4,5-bisphosphate 3-kinase catalytic subunit delta isoform (Homo sapiens, UniProt O00329).
T1 sequence (O00329 whole entry): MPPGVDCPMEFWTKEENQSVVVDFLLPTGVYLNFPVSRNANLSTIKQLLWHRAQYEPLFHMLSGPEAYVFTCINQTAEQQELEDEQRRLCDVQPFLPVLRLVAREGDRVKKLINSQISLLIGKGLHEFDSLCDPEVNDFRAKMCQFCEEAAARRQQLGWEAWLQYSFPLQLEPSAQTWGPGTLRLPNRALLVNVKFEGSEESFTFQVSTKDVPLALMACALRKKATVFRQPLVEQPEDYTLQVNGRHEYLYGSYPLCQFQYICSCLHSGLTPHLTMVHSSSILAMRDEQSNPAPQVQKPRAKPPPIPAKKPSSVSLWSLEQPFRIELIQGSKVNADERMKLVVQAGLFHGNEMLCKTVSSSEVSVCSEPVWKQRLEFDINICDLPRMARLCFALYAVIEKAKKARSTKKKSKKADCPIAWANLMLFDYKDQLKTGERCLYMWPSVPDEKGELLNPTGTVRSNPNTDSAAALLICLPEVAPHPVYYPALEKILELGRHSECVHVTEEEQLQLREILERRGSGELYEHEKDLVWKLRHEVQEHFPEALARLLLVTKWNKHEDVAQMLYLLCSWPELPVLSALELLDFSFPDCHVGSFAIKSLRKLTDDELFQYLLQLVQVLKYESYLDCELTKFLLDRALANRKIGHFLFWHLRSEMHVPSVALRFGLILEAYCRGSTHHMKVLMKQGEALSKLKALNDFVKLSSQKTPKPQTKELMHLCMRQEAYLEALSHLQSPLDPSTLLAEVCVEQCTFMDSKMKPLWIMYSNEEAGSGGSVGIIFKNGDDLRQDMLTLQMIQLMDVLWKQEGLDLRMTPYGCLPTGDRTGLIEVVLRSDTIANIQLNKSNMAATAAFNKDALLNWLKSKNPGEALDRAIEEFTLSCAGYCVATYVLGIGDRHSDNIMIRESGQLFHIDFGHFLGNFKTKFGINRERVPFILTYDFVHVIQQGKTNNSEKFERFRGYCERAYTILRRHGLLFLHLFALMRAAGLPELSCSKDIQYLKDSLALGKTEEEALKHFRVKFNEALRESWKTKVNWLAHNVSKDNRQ
Kind of experiment: Inhibition of PI3K delta (unknown origin).

Regarding `Cc1nc(-c2cn3c(n2)-c2ccc(-c4cnn(C(C)(C)C(N)=O)c4)cc2OCC3)n(C(C)C)n1` [TASELISIB], the IC50 in experiment [1] and in experiment [2] was less than 0.7 nM throughout.
